Assay results from ChEMBL document CHEMBL3259653, “Potent and selective inhibitors of human reticulocyte 12/15-lipoxygenase as anti-stroke therapies” (J Med Chem, 2014).

Biological target: T1, Polyunsaturated fatty acid lipoxygenase ALOX15 (Homo sapiens, UniProt P16050)
T1 sequence (P16050 whole entry): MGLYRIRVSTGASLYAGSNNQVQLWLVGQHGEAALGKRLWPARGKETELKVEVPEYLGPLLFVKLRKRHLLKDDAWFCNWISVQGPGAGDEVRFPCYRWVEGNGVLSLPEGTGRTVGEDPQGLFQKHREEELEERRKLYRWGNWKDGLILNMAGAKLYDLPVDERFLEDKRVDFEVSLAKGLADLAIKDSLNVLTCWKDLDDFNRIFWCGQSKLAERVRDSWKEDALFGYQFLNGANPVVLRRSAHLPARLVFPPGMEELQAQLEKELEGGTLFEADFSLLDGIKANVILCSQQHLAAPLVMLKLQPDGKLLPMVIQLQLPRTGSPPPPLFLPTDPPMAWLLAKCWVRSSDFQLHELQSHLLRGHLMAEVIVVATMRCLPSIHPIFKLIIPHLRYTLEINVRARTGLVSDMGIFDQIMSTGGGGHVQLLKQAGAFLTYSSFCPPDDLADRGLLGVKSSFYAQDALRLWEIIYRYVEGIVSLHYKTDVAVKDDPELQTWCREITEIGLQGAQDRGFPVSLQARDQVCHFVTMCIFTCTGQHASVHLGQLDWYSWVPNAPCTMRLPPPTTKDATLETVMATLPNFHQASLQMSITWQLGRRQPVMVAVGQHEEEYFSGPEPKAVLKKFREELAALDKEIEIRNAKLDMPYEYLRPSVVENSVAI
Assay: Inhibition of recombinant N-terminal His6-tagged human reticulocyte 12/15-lipoxygenase using arachidonic acid as substrate by UV-vis spectrometric analysis

`CNc1ncc(-c2cccc3ccccc23)o1` and `CNc1nccc(-c2cccc3ccccc23)n1` cannot be ordered by IC50: over 40 µM for the first, over 40 µM for the second.

Work on `CNc1sc(-c2cccc3ccccc23)nc1C(=O)OC` yielded an IC50 of over 30 µM.
